Measured values published in ChEMBL document CHEMBL1134251, “Quinazolines as cyclin dependent kinase inhibitors” (Bioorg Med Chem Lett, 2001).

Biological target: Cyclin-dependent kinase 2/cyclin E (Homo sapiens, UniProt P24941)
Assay: In vitro inhibitory activity against human cyclin dependent kinase (CDK2/E)
Type: protein-complex assay

IC50: 600 nM
Structure (SMILES): CC(C)(C)Nc1nc(C(F)(F)F)nc2ccc(-c3cccc(N)c3)cc12
